Test results: ChEMBL document CHEMBL1275474, “In vitro activity of tigecycline against multidrug-resistant Acinetobacter baumannii and selection of tigecycline-amikacin synergy” (2008)

Test system: Acinetobacter baumannii
Experiment: Antimicrobial activity against Acinetobacter baumannii by microdilution method
Type: functional

## GENTAMICIN
  MIC: 0.5 µg/mL
